Conditions: in water

Substance | solubility [mg/mL]
[2-(2-dimethylamine ethyl)-malonato].[cis-1,2-ethylenediamine] platinum (II) tosilate [compound 20] | 269
[2-(3-diethylamine propyl)-malonato].[cis-(1,2-trans-diaminocyclopentane)]platinum (II) phosphate [compound 17] | 178
[2-(2-dimethylamine ethyl)-malonato].[cis-trans-1,2-diaminomethylcyclobutane]platinum (II) phosphate [compound 25] | 185
[2-(3-dimethylamine propyl)-malonato].[cis-(1,2-trans-cyclohexamethylene diamine)]platinum (II) phosphate [compound 11] | 200
2-(2-diethylamine ethyl)-malonic.cis-1,4-(trans-2,3-cyclobutyl)-butanediamine platinum (II) phosphate [compound 26] | 176
[2-(2-diethylamine ethyl)-malonato].[cis-1,2-(1,2-dihydroxymethyl)-ethyldiamine]platinum (II) phosphate [compound 23] | 206
[2-(2-diethylamine ethyl)-malonato].[cis-1,3-(2,2-(4-oxacyclohexyl))-propyldiamine]platinum (II) phosphate [compound 28] | 178

Source: patent US9138421B2, “Platinum compounds for treating cell proliferative diseases, preparation method and use thereof” (priority 2011, dated 2015)
